Antibody variant affinities, Ab-91 heavy chain, assay 2

The measurements come from Engelhart et al. 2022 (doi:10.1038/s41597-022-01779-4) through the FLAb antibody collection.

Target peptide (SARS-CoV-2 spike, HR2 region): PDVDLGDISGINAS

Each scFv is VL, a (GGGGS)3 linker, VH, as in the parent Ab-91, and differs from it in the CDRs of the heavy chain only.
VL: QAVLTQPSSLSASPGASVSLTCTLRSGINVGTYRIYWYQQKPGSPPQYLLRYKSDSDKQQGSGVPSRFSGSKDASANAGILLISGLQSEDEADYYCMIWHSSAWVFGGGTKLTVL
VH: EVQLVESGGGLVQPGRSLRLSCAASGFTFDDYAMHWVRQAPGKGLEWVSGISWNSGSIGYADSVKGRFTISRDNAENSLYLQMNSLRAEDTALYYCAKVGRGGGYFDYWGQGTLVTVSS

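The starting antibody came from a phage panning campaign against this peptide. The library (AAYL51) carries one to three amino acid substitutions per variant, with no insertions or deletions. The scFvs were displayed on barcoded MATa yeast, the peptide on MATalpha yeast. Mating (16 h, 30 °C) was followed by selection of diploids and sequencing of their barcodes. Scores were corrected for input abundance and mapped to Kd with protein pairs of known affinity run in the same pool. Mating was done three times.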

Changes read parent residue, position, new residue, counted from the first residue of the VH shown. All variants listed here change D31 of the VH, counted from its first residue. The read-out is the apparent dissociation constant on a log10 scale (nM): the lower, the stronger. The mean shown is taken over the replicates in which the pair was detected. A pair that was not seen in any replicate is written "nd"; this usually means weak binding, but a binder can also be missed. As a blank, each scFv also met three strains without target: over library AAYL51, 21% of these pairings were detected, typically at 4.54 and seldom below 3.26. Parent in this assay: reference entry 1.86, copy in this library 0.88.

* F27C/D31K/G100S = 4.79 (1 of 3 replicates)
* D31G/Y32H/S63F = 4.49 (1 of 3 replicates)
* F27K/D31M/R101F = 5.07 (1 of 3 replicates)
* D31P/V99N/G103K = 4.84 (1 of 3 replicates)
* F27T/D31R/M34A = nd (0 of 3 replicates)
* D31L/A61D = 2.87 (3 of 3 replicates)
* D31N/W53Q/K65W = 1.27 (3 of 3 replicates)
* D31H/W53T/S55L = 4.42 (1 of 3 replicates)
* D31S/H35S/N54Q = nd (0 of 3 replicates)
* D31S/V64R/D107C = nd (0 of 3 replicates)
* D31T/G56E = 1.37 (3 of 3 replicates)
* D31C/I51K/S63N = nd (0 of 3 replicates)
* D30V/D31V/V99Y = nd (0 of 3 replicates)
* D31Y/M34D = 5.47 (1 of 3 replicates)
* D31P/G102F/F106A = 0.31 (3 of 3 replicates)
* D31I/Y60S/D107I = 4.97 (1 of 3 replicates)
* T28Q/D31G/D62W = 2.72 (3 of 3 replicates)
* D31E/M34K/S55W = nd (0 of 3 replicates)
* D30K/D31N = 0.73 (3 of 3 replicates)
* D31G/S52D/S63P = 3.44 (3 of 3 replicates)
* D31T/I51Q/V99R = 4.38 (2 of 3 replicates)
* G26W/D31T/S52Y = nd (0 of 3 replicates)
* D31Q/G103I/D107K = 1.83 (2 of 3 replicates)
* D31H/N54Q/G100L = nd (0 of 3 replicates)
* D31Q/G59F/G104T = nd (0 of 3 replicates)
* D31P/V64C = nd (0 of 3 replicates)
* D31N/G102T = 4.77 (2 of 3 replicates)
* D31A/D62F = nd (0 of 3 replicates)
* D31L/W53E = 3.27 (2 of 3 replicates)
* D31C/H35Y/V99L = 4.29 (1 of 3 replicates)
* D31H/A61S/S63A = 2.02 (3 of 3 replicates)
* D31E/G59T/D107G = 3.95 (2 of 3 replicates)
* D31R/N54Q = 2.11 (3 of 3 replicates)
* D31Y/H35E/D107G = nd (0 of 3 replicates)
* D31R/D62S/G102E = nd (0 of 3 replicates)
* T28H/F29M/D31P = 1.75 (3 of 3 replicates)
* D31P/G100S/G103K = 4.14 (3 of 3 replicates)
* D31C/S55C/G104P = 3.57 (2 of 3 replicates)
* D31C/Y105K/Y108A = nd (0 of 3 replicates)
* D31T/S52V/F106P = nd (0 of 3 replicates)
* D31L/G50D = nd (0 of 3 replicates)
* T28H/F29S/D31I = 3.50 (1 of 3 replicates)
* D31Y/Y32E/W53A = 3.14 (2 of 3 replicates)
* G26S/T28I/D31M = nd (0 of 3 replicates)
* D31I/S63P/Y108N = 5.37 (2 of 3 replicates)

4 of these entries, quoted again:

changes,"mean, log10 nM",seen in
D31E/G59T/D107G,3.95,2/3
D31N/G102T,4.77,2/3
D31H/A61S/S63A,2.02,3/3
F27T/D31R/M34A,nd,0/3